Antibody variant affinities, Ab-91 heavy chain, assay 2

Target peptide (SARS-CoV-2 spike, HR2 region): PDVDLGDISGINAS

Parent: Ab-91, a human scFv built as VL, the linker GGGGSGGGGSGGGGS, VH. Only the CDRs of the heavy chain vary.
VL: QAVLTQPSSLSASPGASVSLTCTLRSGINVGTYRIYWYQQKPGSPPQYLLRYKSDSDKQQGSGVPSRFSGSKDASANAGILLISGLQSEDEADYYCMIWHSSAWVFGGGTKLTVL
VH: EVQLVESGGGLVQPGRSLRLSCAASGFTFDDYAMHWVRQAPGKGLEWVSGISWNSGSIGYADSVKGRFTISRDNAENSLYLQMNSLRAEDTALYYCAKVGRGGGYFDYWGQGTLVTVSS

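The parent was found by panning a naive human phage display library on the peptide. AAYL51 was designed without a model: most single CDR substitutions and a random sample of double and triple ones. In AlphaSeq, yeast of one mating type display the scFv and yeast of the other type display the target. Binding brings cells together so that they mate, and sequencing counts the barcode pairs among the diploids. Read counts were normalised to the haploid input and turned into Kd by a linear fit to BCL2-family pairs of known affinity, for each replicate. The assay was run in three technical replicates.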

The parent's heavy chain CDRs are GFTFDDYAMH, GISWNSGSIGYADSVK, VGRGGGYFDY; each variant's own CDRs replace them letter for letter.
The read-out is the apparent dissociation constant on a log10 scale (nM): the lower, the stronger.
The mean shown is taken over the replicates in which the pair was detected.
"n.d." means that the variant was in the library but no mating with the target was seen in that replicate; the authors take this as a sign of poor binding, and no number exists.
Empty control strains, which show no peptide, gave a signal in 21% of pairings with library AAYL51; the median was 4.54 and 95% of these signals were weaker than 3.26. No background was subtracted. Also given: how often the same scFv was detected with the empty control strains, with their mean in brackets.

CDR-H1 | CDR-H2 | CDR-H3 | log10 Kd, replicates | log10 Kd (nM), mean | empty controls
GFTFDDYAMH | GISWNSGSLGYADSVK | VGFGGGEFDY | 4.25 4.15 n.d. | 4.20 | 3 of 9 (4.02)
GFTTDDYARH | GISWNSGSFGYADSVK | VGRGGGYFDY | n.d. 5.51 4.56 | 5.04 | 5 of 9 (5.05)
GATFDDYAMH | GISWNVGSIGYADSVK | VGRGGGYFDC | 3.93 5.40 5.04 | 4.79 | 6 of 9 (4.16)
GFTKDDYAMH | GISWNSGSIGYADSVK | VGRGGGDLDY | n.d. n.d. n.d. | n.d. | 0 of 9
GFTFDDYAME | GISWNSGSIGYADSVK | VGRGGHYFDY | n.d. n.d. n.d. | n.d. | 0 of 9
GFWFDDYAMH | GISWNSGSIGYADSVK | VGRGWGYFDY | 5.55 n.d. n.d. | 5.55 | 1 of 9 (2.87)
GFTFDDYAMH | GISWNSGSIGYARSVL | VGRGGGYFDY | 2.78 2.32 2.34 | 2.48 | 1 of 9 (3.53)
GFTFDDYAMH | WISLNSGSIGYADYVK | VGRGGGYFDY | n.d. n.d. n.d. | n.d. | 0 of 9
RFTFQDYAMH | GISWNSGSIGYADSVK | VGRGGMYFDY | 2.05 2.05 1.82 | 1.97 | 7 of 9 (5.49)
GFTFDGYAMH | GISWLSGSIGYADSVK | VNRGGGYFDY | n.d. n.d. n.d. | n.d. | 0 of 9
GKTFDDYAMH | GISWNSGSSGYADSVK | VGRGGGYFDY | n.d. n.d. n.d. | n.d. | 0 of 9
GFTFDDYAMH | WISWQDGSIGYADSVK | VGRGGGYFDY | n.d. n.d. n.d. | n.d. | 0 of 9
GFTFDDYAMH | GISHNKGSLGYADSVK | VGRGGGYFDY | n.d. 3.05 n.d. | 3.05 | 0 of 9
GFTFDDYAMH | GISWCSGSIGQAISVK | VGRGGGYFDY | n.d. n.d. n.d. | n.d. | 0 of 9
GGTWDDYAMH | GISWNSGSIGPADSVK | VGRGGGYFDY | 5.50 4.66 4.91 | 5.02 | 8 of 9 (5.11)
GFTFDDYAMH | PISWNSGSIAYADSVK | VGRGGGYFDY | 5.23 n.d. 4.14 | 4.69 | 4 of 9 (4.37)
GFTIDQYAMH | GILWNSGSIGYADSVK | VGRGGGYFDY | 5.10 n.d. n.d. | 5.10 | 2 of 9 (4.52)
GFTFDDYPMW | GISWNSGSIGYADSVK | VGRGGGYFDQ | 5.50 n.d. n.d. | 5.50 | 6 of 9 (5.21)
GFTFDDYAMH | GIQWNSGSIGYADWVK | VGRGGGYFPY | n.d. n.d. 3.88 | 3.88 | 2 of 9 (4.47)
GFTFDDYTMH | GHSWNSGWIGYADSVK | VGRGGGYFDY | n.d. n.d. n.d. | n.d. | 2 of 9 (5.03)
GFTFDDYAMH | GISWGSGSEGYADSVK | VPRGGGYFDY | 2.48 2.75 2.81 | 2.68 | 4 of 9 (4.37)
GFTFDDYAMH | QISWNSGSIGYADSNK | VGHGGGYFDY | n.d. n.d. n.d. | n.d. | 1 of 9 (4.30)
GFTFDDYAMH | GIYWNSGSWGYADSVK | VGRGGYYFDY | 5.00 n.d. n.d. | 5.00 | 5 of 9 (4.94)
PFTFDDYAMH | MISWNSGSIGYADSVK | VGRGGGCFDY | n.d. n.d. n.d. | n.d. | 0 of 9
GFTFDDYAML | GIHWNSGSILYADSVK | VGRGGGYFDY | n.d. n.d. n.d. | n.d. | 0 of 9
GFTFDDYAMH | GISWNSGSIGYADSVG | VGRGGGYRLY | 1.20 1.35 0.72 | 1.09 | 0 of 9
EFTFDDYAMH | GISWNSGSIGYADSVK | VGRGGGYFDY | n.d. n.d. n.d. | n.d. | 1 of 9 (4.09)
GFTFEDYAMH | GISWNSGSIGYADSIK | VGRGGGYFDY | 1.01 0.95 0.42 | 0.79 | 2 of 9 (4.90)
GFTIDDYRMH | GISWNSGSIGYADSVF | VGRGGGYFDY | n.d. n.d. n.d. | n.d. | 0 of 9
GFTMDQYAMH | GISWNSGSIGYGDSVK | VGRGGGYFDY | 1.32 1.38 1.51 | 1.40 | 0 of 9
GFTFDDYAMH | GISWNSGSIWDATSVK | VGRGGGYFDY | n.d. n.d. n.d. | n.d. | 0 of 9
PFTFDDYAMH | GISWNSGSIGYADSVK | VGRGGGYNDY | n.d. n.d. n.d. | n.d. | 1 of 9 (2.94)
GFTFDDYFMH | GISWNSGSIGYADSVK | VGRGGGGKDY | n.d. n.d. n.d. | n.d. | 0 of 9
GFYFDDYAMH | GISWNSGSIGYADSVK | VGRGRGPFDY | 2.29 2.35 2.37 | 2.33 | 7 of 9 (4.77)
GFHFDDYAIH | GCSWNSGSIGYADSVK | VGRGGGYFDY | n.d. 4.13 n.d. | 4.13 | 2 of 9 (5.63)
GFTFDQYAMH | GISWNSGSIGYADSVM | VGRGGGYFDY | n.d. n.d. n.d. | n.d. | 0 of 9
GFTFDDYAMH | GISFNSWSIGYADSVK | VGRGGGYFDY | 5.11 5.80 n.d. | 5.45 | 4 of 9 (5.01)
GFTFDDYAMH | GISWNSGSIFYADSVL | VGRGGGYFDY | n.d. n.d. n.d. | n.d. | 1 of 9 (3.60)
GFTFDENAMH | GISWNSGSICYADSVK | VGRGGGYFDY | n.d. n.d. n.d. | n.d. | 0 of 9
GFGFDDYWMH | GISWNSGSIGYADTVK | VGRGGGYFDY | n.d. n.d. n.d. | n.d. | 0 of 9
GFTFDEYAMM | GVSWNSGSIGYADSVK | VGRGGGYFDY | n.d. n.d. n.d. | n.d. | 1 of 9 (5.51)
GFTFDGYAMH | GISWASGSIGYADSVK | HGRGGGYFDY | 3.27 n.d. 4.46 | 3.86 | 1 of 9 (3.67)
GFTFFDEAMH | GISWNSGSIGYADSVK | VGRGGGYFDN | n.d. n.d. n.d. | n.d. | 1 of 9 (3.28)
GVTFDDYAAH | GISWNSGSIFYADSVK | VGRGGGYFDY | 4.91 n.d. n.d. | 4.91 | 3 of 9 (4.20)
GFTFDDYAMH | GISWNSGSIGYYDSVK | VGRHGGYFDY | n.d. 4.66 5.67 | 5.16 | 4 of 9 (4.89)
GFTADDYAMH | GISWNSGSIGYVDSVK | VNRGGGYFDY | n.d. n.d. n.d. | n.d. | 0 of 9
GFTFDDYAQC | GISWCSGSIGYADSVK | VGRGGGYFDY | 4.56 6.61 n.d. | 5.58 | 1 of 9 (4.73)
GFTFDDYAMH | GISWNSGSIGGADSVK | VGCGGGYFGY | n.d. n.d. n.d. | n.d. | 2 of 9 (4.16)
GFTFDKYAMH | GISWNSGSIGMADSVK | VGRGGMYFDY | n.d. n.d. n.d. | n.d. | 0 of 9
GFTFYDYAMH | GISWNSGSIGYCDSVK | VFRGGGYFDY | 4.91 n.d. n.d. | 4.91 | 1 of 9 (2.10)

Data: MIT Lincoln Laboratory AlphaSeq set, Engelhart et al. 2022, doi:10.1038/s41597-022-01779-4, as distributed in FLAb.